For this data set the following is noted: heat dried, different temperatures and drying methods.

Experimental findings from US20210293791A1, “BACTERIAL VAGINOSIS DIAGNOSTIC” (MOLOGIC LTD, priority 2018, published 2021) are described below.

Take “NH2—Cyc-DAla-Ser[Gal-Sial]-DAla-Arg-PEG-Biotin [MOL600c]”: the “functionality retained up to” value is reported as no more than 4 week and the “performance appears to decline at” value stood at 8 weeks.
